Here are results for one compound from patent US9073882B2, “Inhibitors of the renal outer medullary potassium channel” (Merck Sharp & Dohme Corp., priority 2010, dated 2015).

Sequences of proteins named here, by UniProt entry; tags and fusion partners are left off. A change or cut given only in a name is not applied to a line headed by its entry.
UniProt P48048: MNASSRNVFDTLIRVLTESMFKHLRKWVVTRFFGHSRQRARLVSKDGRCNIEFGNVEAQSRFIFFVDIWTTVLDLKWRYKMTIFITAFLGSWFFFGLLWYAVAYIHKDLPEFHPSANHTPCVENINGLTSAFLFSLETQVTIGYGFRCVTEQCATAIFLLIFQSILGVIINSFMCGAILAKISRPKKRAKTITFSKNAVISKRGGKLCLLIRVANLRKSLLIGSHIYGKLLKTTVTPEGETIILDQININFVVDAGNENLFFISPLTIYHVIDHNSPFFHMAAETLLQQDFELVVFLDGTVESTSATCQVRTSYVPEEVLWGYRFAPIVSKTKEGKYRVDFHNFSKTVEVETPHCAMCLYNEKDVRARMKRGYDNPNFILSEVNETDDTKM

Molecules are shown by their SMILES.

In this test the target is hROMK (hKir1.1) (Homo sapiens (Human), UniProt P48048). The test is described as follows: Thallium Flux Assay. Type of test: cell-based. The following applies: Table 2; HEK293 cells stably expressing hROMK (hKir1.1).

`O=[N+]([O-])c1ccc(CCN2CCN(CCc3ccc([N+](=O)[O-])cc3)CC2)cc1` [Example 1, 1,4-Bis[2-(4-nitrophenyl)ethyl]piperazine]: the half-inhibitory concentration (IC50) came to 66 nM.
